Results published in patent US8541437B2, “Substituted 2,3,4,5-tetrahydro-1H-pyrido[4,3-b]indoles, methods for the production and use thereof” (Alla Chem, LLC, priority 2007, dated 2013).

Sequences of proteins named here, by UniProt entry; tags and fusion partners are left off.
UniProt P35367, whole entry: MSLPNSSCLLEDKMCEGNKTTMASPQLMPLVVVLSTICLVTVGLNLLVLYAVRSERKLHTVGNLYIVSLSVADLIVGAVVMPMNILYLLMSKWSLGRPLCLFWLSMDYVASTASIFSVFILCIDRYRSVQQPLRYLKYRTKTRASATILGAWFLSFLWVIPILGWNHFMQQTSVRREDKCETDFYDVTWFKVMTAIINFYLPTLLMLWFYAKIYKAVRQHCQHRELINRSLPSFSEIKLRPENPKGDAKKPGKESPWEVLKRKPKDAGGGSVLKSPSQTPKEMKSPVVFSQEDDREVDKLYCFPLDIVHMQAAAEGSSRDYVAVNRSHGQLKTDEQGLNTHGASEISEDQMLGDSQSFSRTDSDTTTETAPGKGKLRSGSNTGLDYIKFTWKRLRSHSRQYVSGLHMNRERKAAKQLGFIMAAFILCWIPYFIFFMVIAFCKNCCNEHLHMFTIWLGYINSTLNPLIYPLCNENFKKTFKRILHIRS

Target: H1 histamine receptor (Homo sapiens, UniProt P35367)
Test: Histamine-induced intracellular calcium in SK-N-SH cells (Fura 2 AM), Phase 1: block of calcium entry

## Cc1ccc2c(c1)c1c(n2CCc2ccccc2)CCN(C)C1.Cl [1.2.1(1)HCl, 2,8-dimethyl-5-(2-phenethyl)-2,3,4,5-tetrahydro-1H-pyrido[4,3-b]indole hydrochloride]
  pEC50: 7.40

pEC50: −log10 of the molar value.
